Only a part is listed here, and it is no random draw. The source made the active and inactive calls. Rule as the data show it: active = activation above about 40%; inconclusive = between about 15% and that limit; inactive = weaker than that.

Amino acid sequences for entries named in this document (tags omitted).
UniProt P14416, whole entry: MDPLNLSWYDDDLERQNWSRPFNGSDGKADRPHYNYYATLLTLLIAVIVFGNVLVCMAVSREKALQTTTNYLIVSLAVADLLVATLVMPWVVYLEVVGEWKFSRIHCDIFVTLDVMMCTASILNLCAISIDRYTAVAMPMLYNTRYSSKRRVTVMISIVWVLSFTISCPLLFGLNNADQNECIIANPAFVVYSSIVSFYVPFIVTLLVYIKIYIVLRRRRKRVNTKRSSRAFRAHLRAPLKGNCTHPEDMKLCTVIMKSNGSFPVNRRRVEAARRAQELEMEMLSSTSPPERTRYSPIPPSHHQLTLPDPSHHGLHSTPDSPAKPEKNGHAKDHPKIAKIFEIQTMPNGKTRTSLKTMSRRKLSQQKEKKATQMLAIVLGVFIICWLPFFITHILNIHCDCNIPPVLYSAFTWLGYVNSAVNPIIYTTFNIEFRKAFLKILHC

The target in the assay is D(2) dopamine receptor (Homo sapiens) (UniProt P14416). As to the kind of experiment: Beta-Arrestin HTS for Positive Allosteric Modulators of the Human D2 Dopamine Receptor: Agonists. The note with it: DiscoveRx PathHunter D2 beta-arrestin, luminescence, 90 min; active compounds read high; 100% = 57 uM dopamine signal. An excerpt: There is great interest in identifying small molecule ligands for G-protein coupled receptors (GPCRs) as nearly 50% of all FDA-approved drugs target these important receptor proteins. […] Amongst the dopamine receptors (DARs), the D2 is arguably one of the most validated drug targets in neurology and psychiatry. For instance, all receptor-based antiparkinsonian drugs primarily work via stimulating the D2 DAR, whereas all FDA-approved antipsychotic agents are antagonists of this receptor. The D2 DAR is also therapeutically targeted in other disorders such as restless legs syndrome, tardive dyskinesia, Tourette's syndrome, and hyperprolactinemia.
To this end, a miniaturized qHTS screen was developed to be screened against the Molecular Libraries Small Molecule Repository (MLSMR). This assay seeks to identify agonists against the D2 DAR.
NIH Molecular Libraries Probe Production Network [MLPCN]
NIH Chemical Genomics Center [NCGC]
PI Name: David Sibley, National Institutes of Neurological Disorders and Stroke
DiscoveRx D2 cells were thawed from frozen stock and seeded at 2,100 cells/ 3 uL/well media (DiscoveRx Plating Reagent 2) with MultiDrop Combi dispenser (Thermo Scientific, Logan, UT) onto white tissue culture treated 1536-well Aurora plates (Brooks Automation, Chelmsford, MA) and allowed to attach overnight at 37 deg C, 5% CO2. Next, 23 nL/well of compound solutions in DMSO were added with a pintool transfer (Kalypsis, San Diego, CA). As the positive control, 1 uL/well dopamine (EC100, 57 uM final concentration) diluted in buffer (HBSS + 10 mM HEPES + SMB + 0.1% Tween-20) was dispensed to 1 column of each plate. The rest of the plate was dispensed with buffer only, 1 uL/well as well. The cells were stimulated by compounds or dopamine control for 90 minutes at 37 deg C, 5% CO2, after which 1.5 ul/well of DiscoveRx detection reagent was added with BioRAPTR FRD dispenser. The detection reagent was prepared by mixing of Galacton Star Substrate, Emerald II solution and PathHunter buffer (supplied by the assay kit) together at 1:5:19 proportion accordingly just prior to dispensing. The plates were incubated at ambient temperature for 1 hour and then the luminescent signal was read on ViewLux plate reader (PerkinElmer, Waltham, MA).
In the case of `CN(C)C1(CNC(=O)c2cccc(C#N)c2)CCCCC1`, the activation was inactive: -1.25%.

For the compound `O=c1[nH]c2ccccc2n1C1CCN(C(c2ccccc2)c2nnnn2C2CCCC2)CC1` (centres undefined), the activation is inactive: -2.72%.

With `CCCN1CCC(Nc2cc(OC)cc(OC)c2)CC1`, the activation was inactive: 10.8%.

`Cc1cc(N(CCCl)CCCl)ccc1C=O`: the activation was inactive: -1.33%.

Regarding `c1ccc(CN2CCC(Nc3ccccc3)CC2)cc1`, the activation is inactive: -1.26%.

As for `CC(C)(C)n1nnnc1C(c1cccc2ccccc12)N1CCC(n2c(=O)[nH]c3ccccc32)CC1` (centres undefined), the activation is inactive: 3.21%.

As to `N#Cc1ccc(C(=O)NCC2(N3CCCCC3)CCCCC2)cc1`, the activation was inactive: -3.85%.

As to `CC(C)(C)OC(=O)N1CCC(N(C(=O)c2ccccc2)c2ccc(Cl)cc2)CC1`, the activation is inactive: -2.41%.

Take `CCOC(=O)C(CC)C1=NC(C)(C)Cc2ccccc21.O=[N+]([O-])c1cc([N+](=O)[O-])c(O)c([N+](=O)[O-])c1` (centres undefined): the activation was inactive: -4.53%.

With `COc1cccc(C(c2nnnn2C(C)(C)C)N2CCC(n3c(=O)[nH]c4ccccc43)CC2)c1OC` (centres undefined), the activation is inactive: 6.65%.

Take `CCOC(=O)N1CCC(Nc2ccc(C)cc2)CC1`: the activation was inactive: 8.14%.

As to `N/C(=N\O)c1c(N)no[n+]1[O-]`, the activation was inactive: -2.84%.

As to `O=C(O)c1cccc(Nc2c([N+](=O)[O-])cc([N+](=O)[O-])cc2[N+](=O)[O-])c1`, the activation was inactive: -11.4%.

As to `O=c1[nH]c2ccccc2n1C1CCN(C(c2cccs2)c2nnnn2C2CCCC2)CC1` (centres undefined), the activation is inactive: 6.03%.

Take `O=C(OC1CN2CCC1CC2)C1c2ccccc2C=Cc2ccccc21` (centres undefined): the activation is inactive: -5.21%.

On to `CCc1cc(C(=O)NCC2(N3CCCCC3)CCCCC2)sc1C`, for which the activation is inactive: -2.13%.

For `CCCCn1nnnc1C(c1cccc(OC)c1OC)N1CCC(n2c(=O)[nH]c3ccccc32)CC1` (centres undefined), the activation is inactive: 14.1%.

On to `COc1cc(C(=O)NCC2(N3CCOCC3)CCCCC2)cc(OC)c1C`, for which the activation was inactive: -0.192%.

As for `CCCCn1nnnc1C(c1ccccc1)N1CCC(n2c(=O)[nH]c3ccccc32)CC1` (centres undefined), the activation was inactive: 13.4%.

`O=C(NCC1(N2CCOCC2)CCCCC1)c1cc(Br)ccc1Cl`: the activation was inactive: 0.115%.

For `O=c1[nH]c2ccccc2n1C1CCN(C(c2ccnc3ccccc23)c2nnnn2C2CCCC2)CC1` (centres undefined), the activation is inactive: -4.3%.

For the compound `COc1ccc(C(=O)NCC2(N3CCOCC3)CCCCC2)cc1OC`, the activation is inactive: -4.38%.

`COc1cccc(C(c2nnnn2C2CCCC2)N2CCC(n3c(=O)[nH]c4ccccc43)CC2)c1OC` (centres undefined): the activation is inactive: 4.14%.

Turning to `COc1cc(OC)cc(C(=O)NCC2(N3CCOCC3)CCCCC2)c1`, the activation was inactive: -2.92%.

(Values after PubChem BioAssay AID624465 (National Center for Advancing Translational Sciences (NCATS), 2012).)
